These are literature values, as cited in PMC6018602, “The virulence factor LecB varies in clinical isolates: consequences for ligand binding and drug discovery” (Chemical Science, 2016).

Protein sequences, listed by entry. Tags and fused reporters are not part of them.
UniProt Q9HYN5, entry or part of it: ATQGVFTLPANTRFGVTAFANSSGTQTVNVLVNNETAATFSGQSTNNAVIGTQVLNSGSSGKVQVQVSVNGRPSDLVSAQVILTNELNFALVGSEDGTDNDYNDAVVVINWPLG

For this series, the target named is LecBPAO1 (Pseudomonas aeruginosa, UniProt Q9HYN5). As to conditions: ITC; cited from earlier work.

Turning to `CO[C@H]1O[C@H](CO)[C@@H](O)[C@H](O)[C@@H]1O` [Compound 5, methyl α-D-mannoside], the “ΔG (LecBPAO1)” value is -5.66 kcal/mol.
